Data published in the NIST ThermoML archive (doi:10.1021/je0342062).

How the values were obtained:
[1] = xn = mol fraction of the nth substance listed; conditions: 308.15 K, 101.32 kPa, Liquid, Vibrating tube method
[2] = excess molar enthalpy (molar enthalpy of mixing); xn = mol fraction of the nth substance listed; conditions: 308.15 K, 101.32 kPa, Liquid
[3] = 101.33 kPa, Liquid, Vibrating tube method

OCCOCCOCCOCCO [tetraethylene glycol] + OCc1ccccc1
Conditions | excess molar enthalpy [kcal/mol] | mass density [kg/m3]
[1], x1 = 0.0793 | – | 1044.72
[1], x1 = 0.1126 | – | 1048.88
[1], x1 = 0.2056 | – | 1059.34
[1], x1 = 0.2511 | – | 1063.96
[1], x1 = 0.3592 | – | 1073.84
[1], x1 = 0.4688 | – | 1082.58
[1], x1 = 0.5786 | – | 1090.24
[1], x1 = 0.6885 | – | 1096.97
[1], x1 = 0.7489 | – | 1100.31
[1], x1 = 0.8169 | – | 1103.87
[1], x1 = 0.9226 | – | 1108.94
[1], x1 = 0.9433 | – | 1109.85
[2], x1 = 0.0244 | -0.0377 | –
[2], x1 = 0.0475 | -0.0668 | –
[2], x1 = 0.0697 | -0.0875 | –
[2], x1 = 0.0908 | -0.105 | –
[2], x1 = 0.1303 | -0.127 | –
[2], x1 = 0.1665 | -0.141 | –
[2], x1 = 0.2305 | -0.153 | –
[2], x1 = 0.2853 | -0.163 | –
[2], x1 = 0.3747 | -0.169 | –
[2], x1 = 0.4734 | -0.175 | –
[2], x1 = 0.5451 | -0.174 | –
[2], x1 = 0.6425 | -0.161 | –
[2], x1 = 0.7056 | -0.146 | –
[2], x1 = 0.7824 | -0.114 | –
[2], x1 = 0.8274 | -0.0922 | –
[2], x1 = 0.8778 | -0.0619 | –
[2], x1 = 0.9349 | -0.029 | –

OCCOCCOCCOCCO [tetraethylene glycol]
[3]
Conditions | mass density [kg/m3]
298.15 K | 1120.09
308.15 K | 1112.31
